# Source: the kinase profiling compilation of Christmann-Franck et al. (2016)
# Chains of the proteins cited; added tags and fusions are not shown. Lines headed by an entry give the natural chain unless they say otherwise; changes in a name come on top.
# UniProt P42679: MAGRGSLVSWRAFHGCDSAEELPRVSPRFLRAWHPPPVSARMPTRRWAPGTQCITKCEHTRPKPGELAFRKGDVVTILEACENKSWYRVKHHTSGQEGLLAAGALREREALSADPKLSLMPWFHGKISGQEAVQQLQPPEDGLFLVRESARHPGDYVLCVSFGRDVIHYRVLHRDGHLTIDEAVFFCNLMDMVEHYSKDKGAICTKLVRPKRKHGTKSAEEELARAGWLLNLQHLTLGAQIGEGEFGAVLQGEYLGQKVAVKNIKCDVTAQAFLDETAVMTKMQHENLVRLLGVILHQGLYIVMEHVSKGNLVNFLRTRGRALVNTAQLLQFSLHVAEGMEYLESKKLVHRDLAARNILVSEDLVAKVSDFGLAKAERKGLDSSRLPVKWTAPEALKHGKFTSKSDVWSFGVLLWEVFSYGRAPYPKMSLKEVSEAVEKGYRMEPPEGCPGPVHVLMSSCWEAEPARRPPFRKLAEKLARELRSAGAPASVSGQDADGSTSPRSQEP
# UniProt Q9BXA7: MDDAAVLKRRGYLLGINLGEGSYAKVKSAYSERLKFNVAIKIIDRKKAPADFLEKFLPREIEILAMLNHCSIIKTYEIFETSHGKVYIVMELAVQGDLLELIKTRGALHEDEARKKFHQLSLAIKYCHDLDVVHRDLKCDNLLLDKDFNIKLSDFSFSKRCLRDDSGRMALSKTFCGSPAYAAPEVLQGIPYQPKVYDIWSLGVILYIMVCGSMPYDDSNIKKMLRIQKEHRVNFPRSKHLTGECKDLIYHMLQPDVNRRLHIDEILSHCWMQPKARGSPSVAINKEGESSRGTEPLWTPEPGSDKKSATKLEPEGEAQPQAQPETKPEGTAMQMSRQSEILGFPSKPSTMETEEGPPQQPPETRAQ
# UniProt P51957: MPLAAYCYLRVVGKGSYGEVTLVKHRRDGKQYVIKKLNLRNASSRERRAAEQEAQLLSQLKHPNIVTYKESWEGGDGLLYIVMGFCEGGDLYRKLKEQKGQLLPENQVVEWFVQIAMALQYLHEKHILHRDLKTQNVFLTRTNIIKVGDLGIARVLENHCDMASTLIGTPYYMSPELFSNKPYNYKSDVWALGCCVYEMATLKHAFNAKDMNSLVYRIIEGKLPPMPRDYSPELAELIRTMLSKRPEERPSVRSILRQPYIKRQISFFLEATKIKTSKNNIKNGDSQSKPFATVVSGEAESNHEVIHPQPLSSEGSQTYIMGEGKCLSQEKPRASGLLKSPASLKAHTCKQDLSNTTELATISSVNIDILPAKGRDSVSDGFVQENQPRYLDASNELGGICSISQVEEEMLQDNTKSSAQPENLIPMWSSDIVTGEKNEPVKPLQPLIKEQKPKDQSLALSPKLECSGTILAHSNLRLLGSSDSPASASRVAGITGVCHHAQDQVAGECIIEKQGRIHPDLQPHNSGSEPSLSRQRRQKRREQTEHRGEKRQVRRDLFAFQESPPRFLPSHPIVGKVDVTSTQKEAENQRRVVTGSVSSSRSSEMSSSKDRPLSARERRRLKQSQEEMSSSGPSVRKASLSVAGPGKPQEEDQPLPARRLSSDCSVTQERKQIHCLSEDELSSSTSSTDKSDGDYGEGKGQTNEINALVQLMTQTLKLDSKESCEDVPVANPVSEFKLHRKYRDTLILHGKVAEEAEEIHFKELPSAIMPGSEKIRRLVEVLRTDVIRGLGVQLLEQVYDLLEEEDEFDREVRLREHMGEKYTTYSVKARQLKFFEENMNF
# UniProt Q9UL54: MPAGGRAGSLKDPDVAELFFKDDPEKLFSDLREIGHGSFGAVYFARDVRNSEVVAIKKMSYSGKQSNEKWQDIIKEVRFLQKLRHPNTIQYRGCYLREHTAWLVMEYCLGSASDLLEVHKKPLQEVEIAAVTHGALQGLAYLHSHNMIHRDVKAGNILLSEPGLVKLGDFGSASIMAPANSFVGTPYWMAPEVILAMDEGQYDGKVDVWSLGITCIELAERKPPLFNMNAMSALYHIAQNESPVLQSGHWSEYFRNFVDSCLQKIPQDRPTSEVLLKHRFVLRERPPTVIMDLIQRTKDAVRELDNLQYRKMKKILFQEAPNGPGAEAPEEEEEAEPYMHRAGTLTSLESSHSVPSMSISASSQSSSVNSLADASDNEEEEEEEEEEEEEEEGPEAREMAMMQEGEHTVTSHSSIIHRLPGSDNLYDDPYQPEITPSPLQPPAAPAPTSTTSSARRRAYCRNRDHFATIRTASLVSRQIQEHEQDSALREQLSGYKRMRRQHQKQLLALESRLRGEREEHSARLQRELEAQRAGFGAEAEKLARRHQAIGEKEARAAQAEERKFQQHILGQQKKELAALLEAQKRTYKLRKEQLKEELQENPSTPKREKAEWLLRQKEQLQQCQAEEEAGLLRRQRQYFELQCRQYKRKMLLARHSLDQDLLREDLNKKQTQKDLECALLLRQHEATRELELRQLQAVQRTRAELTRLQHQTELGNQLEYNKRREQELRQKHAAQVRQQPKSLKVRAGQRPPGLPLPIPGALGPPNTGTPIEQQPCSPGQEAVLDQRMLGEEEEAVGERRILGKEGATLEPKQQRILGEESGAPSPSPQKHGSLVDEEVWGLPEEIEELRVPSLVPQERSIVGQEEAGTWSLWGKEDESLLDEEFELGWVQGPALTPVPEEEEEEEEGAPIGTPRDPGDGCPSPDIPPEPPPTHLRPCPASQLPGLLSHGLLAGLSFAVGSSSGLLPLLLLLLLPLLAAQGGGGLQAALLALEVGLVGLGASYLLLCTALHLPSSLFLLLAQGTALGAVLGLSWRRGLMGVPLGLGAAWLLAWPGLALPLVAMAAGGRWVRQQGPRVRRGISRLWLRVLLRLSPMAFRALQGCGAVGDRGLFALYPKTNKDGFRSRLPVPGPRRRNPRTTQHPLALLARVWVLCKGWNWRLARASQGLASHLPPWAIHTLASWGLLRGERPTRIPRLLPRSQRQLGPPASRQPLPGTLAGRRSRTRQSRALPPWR
# UniProt Q9Y243: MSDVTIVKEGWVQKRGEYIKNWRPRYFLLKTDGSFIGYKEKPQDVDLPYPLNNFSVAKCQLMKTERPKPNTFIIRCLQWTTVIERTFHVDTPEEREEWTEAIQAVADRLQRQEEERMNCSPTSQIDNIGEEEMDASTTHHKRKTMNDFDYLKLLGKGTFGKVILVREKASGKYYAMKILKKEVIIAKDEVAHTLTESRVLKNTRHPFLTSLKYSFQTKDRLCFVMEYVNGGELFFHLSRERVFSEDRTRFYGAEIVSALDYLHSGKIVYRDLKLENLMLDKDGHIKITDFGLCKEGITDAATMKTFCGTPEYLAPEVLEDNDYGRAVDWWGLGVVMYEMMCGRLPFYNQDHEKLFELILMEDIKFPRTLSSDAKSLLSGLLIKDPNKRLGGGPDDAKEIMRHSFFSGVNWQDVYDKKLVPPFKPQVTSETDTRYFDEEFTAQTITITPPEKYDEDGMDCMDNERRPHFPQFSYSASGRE
# UniProt P37023, whole entry, looked up: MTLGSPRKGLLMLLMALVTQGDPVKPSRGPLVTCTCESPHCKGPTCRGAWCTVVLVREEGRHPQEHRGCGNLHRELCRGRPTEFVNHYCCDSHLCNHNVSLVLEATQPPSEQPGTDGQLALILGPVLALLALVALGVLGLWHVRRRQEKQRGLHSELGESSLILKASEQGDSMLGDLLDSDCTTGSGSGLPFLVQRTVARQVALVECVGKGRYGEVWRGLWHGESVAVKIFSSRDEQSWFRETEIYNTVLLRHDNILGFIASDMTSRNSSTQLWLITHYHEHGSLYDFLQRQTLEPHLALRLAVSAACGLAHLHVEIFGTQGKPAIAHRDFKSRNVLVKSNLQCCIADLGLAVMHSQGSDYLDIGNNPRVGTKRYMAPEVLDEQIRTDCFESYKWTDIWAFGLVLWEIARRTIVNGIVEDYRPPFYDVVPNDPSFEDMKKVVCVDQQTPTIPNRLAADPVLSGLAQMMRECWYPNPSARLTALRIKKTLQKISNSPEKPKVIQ
# UniProt P54762: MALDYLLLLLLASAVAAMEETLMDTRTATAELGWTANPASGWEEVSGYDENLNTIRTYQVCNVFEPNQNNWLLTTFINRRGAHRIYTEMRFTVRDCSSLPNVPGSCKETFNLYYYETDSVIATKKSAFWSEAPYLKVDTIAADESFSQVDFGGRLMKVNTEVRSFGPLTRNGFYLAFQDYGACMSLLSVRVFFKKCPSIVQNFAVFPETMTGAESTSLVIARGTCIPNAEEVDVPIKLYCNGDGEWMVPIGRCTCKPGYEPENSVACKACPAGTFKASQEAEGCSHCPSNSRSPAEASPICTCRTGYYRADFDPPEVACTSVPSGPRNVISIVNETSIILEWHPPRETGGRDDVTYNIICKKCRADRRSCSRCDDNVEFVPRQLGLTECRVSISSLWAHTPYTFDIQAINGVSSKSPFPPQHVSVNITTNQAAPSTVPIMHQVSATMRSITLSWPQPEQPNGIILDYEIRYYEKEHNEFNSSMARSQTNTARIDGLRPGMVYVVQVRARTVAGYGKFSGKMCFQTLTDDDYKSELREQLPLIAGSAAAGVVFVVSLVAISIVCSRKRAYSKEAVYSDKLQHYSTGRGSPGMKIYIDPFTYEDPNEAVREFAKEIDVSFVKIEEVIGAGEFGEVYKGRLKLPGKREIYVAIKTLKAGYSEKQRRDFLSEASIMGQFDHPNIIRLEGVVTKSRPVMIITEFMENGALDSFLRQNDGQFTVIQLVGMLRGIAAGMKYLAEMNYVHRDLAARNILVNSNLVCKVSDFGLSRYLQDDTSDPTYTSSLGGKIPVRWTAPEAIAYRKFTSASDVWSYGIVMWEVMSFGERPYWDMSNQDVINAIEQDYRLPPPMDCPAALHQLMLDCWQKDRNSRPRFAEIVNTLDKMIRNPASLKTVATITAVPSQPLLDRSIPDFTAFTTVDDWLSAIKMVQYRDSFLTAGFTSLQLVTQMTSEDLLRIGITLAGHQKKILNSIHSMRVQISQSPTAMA
# UniProt P11309, whole entry, looked up: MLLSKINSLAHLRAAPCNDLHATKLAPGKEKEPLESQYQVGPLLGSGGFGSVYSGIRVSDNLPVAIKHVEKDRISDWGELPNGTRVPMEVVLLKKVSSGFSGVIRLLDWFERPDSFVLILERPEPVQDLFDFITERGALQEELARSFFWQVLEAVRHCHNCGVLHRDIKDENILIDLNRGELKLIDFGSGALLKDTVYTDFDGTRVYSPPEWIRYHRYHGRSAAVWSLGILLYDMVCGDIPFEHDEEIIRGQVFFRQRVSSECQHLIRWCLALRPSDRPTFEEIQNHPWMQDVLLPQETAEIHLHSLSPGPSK
# UniProt Q14680: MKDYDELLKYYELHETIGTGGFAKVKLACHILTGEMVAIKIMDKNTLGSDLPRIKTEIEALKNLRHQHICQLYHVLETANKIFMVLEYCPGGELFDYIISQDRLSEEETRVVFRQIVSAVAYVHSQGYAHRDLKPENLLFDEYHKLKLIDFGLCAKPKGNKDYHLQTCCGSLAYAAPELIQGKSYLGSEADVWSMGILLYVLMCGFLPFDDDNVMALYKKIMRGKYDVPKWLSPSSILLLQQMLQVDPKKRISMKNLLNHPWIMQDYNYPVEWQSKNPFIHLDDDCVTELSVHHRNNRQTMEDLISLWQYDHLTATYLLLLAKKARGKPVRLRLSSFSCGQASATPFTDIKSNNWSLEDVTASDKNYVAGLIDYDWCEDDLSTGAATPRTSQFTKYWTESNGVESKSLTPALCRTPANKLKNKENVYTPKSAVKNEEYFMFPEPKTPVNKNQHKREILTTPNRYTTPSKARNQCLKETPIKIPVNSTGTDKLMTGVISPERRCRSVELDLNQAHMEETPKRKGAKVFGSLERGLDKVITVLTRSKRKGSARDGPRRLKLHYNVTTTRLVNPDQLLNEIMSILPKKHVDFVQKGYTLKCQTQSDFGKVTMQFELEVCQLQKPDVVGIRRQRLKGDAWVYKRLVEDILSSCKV
# Key:
# Experiment in all cases: radiometric filter-binding kinase assay, Kinase HotSpot
# Settings in all cases: compound 0.5 µM; ATP 10 µM
# [1] = target: MATK (human) (UniProt P42679)
# [2] = target: TSSK1B (human) (UniProt Q9BXA7)
# [3] = target: MAPKAPK2 (human) (UniProt P49137)
# [4] = target: NEK4 (human) (UniProt P51957)
# [5] = target: MAPK10 (human) (UniProt P53779)
# [6] = target: TAOK2 (human) (UniProt Q9UL54)
# [7] = target: AKT3 (human) (UniProt Q9Y243)
# [8] = target: ACVRL1 (human) (UniProt P37023)
# [9] = target: TEC (human) (UniProt P42680)
# [10] = target: PAK3 (human) (UniProt O75914)
# [11] = target: PRKCA (human) (UniProt P17252)
# [12] = target: EPHB1 (human) (UniProt P54762)
# [13] = target: PIM1 (human) (UniProt P11309)
# [14] = target: NTRK1 (human) (UniProt P04629)
# [15] = target: MELK (human) (UniProt Q14680)
# [16] = target: STK11 (human) (UniProt Q15831)
smiles,measurement,setting,value
O=C1Nc2ccc3ncsc3c2/C1=C/c1c[nH]cn1,residual activity,[1],102%
same,residual activity,[2],60.1%
same,residual activity,[3],97.6%
same,residual activity,[4],39.5%
same,residual activity,[5],117%
same,residual activity,[6],56.9%
same,residual activity,[7],90.2%
same,residual activity,[8],113%
same,residual activity,[9],116%
same,residual activity,[10],85.4%
same,residual activity,[11],91.4%
same,residual activity,[12],62.2%
same,residual activity,[13],28.2%
same,residual activity,[14],53.7%
same,residual activity,[15],4.74%
same,residual activity,[16],13.5%
